Assay results: patent US9707269B2, “Sugar compositions for treating hemophilia A and/or von Willebrand disease” (CSL Behring GmbH, priority 2012, dated 2017)

Experiments:
rhASGPR [1] = target: T1, rhASGPR (Homo sapiens, UniProt P07306); assay: SPR binding to immobilized clearance receptor rhASGPR; conditions: 25 °C, 5 mM CaCl2, pH 7.4, FIGS. 9 and 10
T1 construct: The extracellular domains of receptor proteins were acquired from R&D Systems (Wiesbaden, Germany); purchased R&D Systems (Wiesbaden, Germany)
T1 sequence (P07306 62-291 limits assumed): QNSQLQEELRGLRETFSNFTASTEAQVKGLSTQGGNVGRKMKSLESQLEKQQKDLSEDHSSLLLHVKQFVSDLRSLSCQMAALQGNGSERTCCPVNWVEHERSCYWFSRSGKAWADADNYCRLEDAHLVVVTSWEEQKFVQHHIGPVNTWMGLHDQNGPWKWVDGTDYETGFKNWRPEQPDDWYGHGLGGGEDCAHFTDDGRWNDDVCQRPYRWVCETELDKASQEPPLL
Method: (§1) SPR technology (Biacore T200, GE Healthcare Biosciences, Uppsala, Sweden) was applied to evaluate mechanisms of realtime biomolecular interactions between VWF, receptor-blocking agents and clearance receptor candidates. The interaction experiments were performed at a flow cell temperature of +25° C. by applying running buffer containing 10 mM HEPES, 150 mM NaCl, 5 mM CaCl2 and 0.05% Tween-20 at pH 7.4, which was also used as sample dilution buffer. Reagents and buffer stock solutions were purchased from GE Healthcare Biosciences (Uppsala, Sweden). The extracellular domains of receptor proteins were acquired from R&D Systems (Wiesbaden, Germany). […]
(§2) Kinetic data were analyzed using Biacore T200 Evaluation Software Version 1.0 (GE Healthcare Biosciences, Uppsala, Sweden). An interaction of the analyte with the ligand was detected by an increase in accumulating mass and specific binding was identified by subtracting the binding response recorded from the control surface, followed by subtracting an average of the buffer blank injections. A report point was positioned 20 seconds after the end of sample injection and was evaluated as representative for a stable protein-ligand interaction, which was of interest. […] Furthermore, the response was calculated relative to the baseline in each case.

rhASGPR [2] = target: T1, rhASGPR; assay: SPR inhibition of ASF binding to rhASGPR by monosaccharides
Method: as §1
as §2, with “case. […]” for “case.”

asialofetuin: bovine ASF (fetuin after the removal of terminal sialic acid residues), ligand blocking galactose receptors such as ASGPR
SPR binding to rhASGPR (rhASGPR [1]): bind efficiently | binding of ASF to rhASGPR in the absence of Ca2+ (rhASGPR [2]): inhibited
